Measurements: paper PMC10512030, “Prolidase-proline oxidase axis is engaged in apoptosis induction by birch buds flavonol santin in endometrial adenocarcinoma cell line” (Frontiers in Molecular Biosciences, 2023)

Tested on: cervical adenocarcinoma HeLa cells
Assay: Cell viability MTT assay, HeLa
Format: cell-based
Settings: Homo sapiens, 48 h, read-out: IC50 values ± SD in MTT assay

Question: Which IC50 does the source give for O=c1cc(-c2ccc(O)c(O)c2)oc2cc(O)cc(O)c12 [luteolin, reference compound] here?
Answer: ~21.7 µM
